Biological target: T1, amyloid (aggregated Aβ1-40) (Homo sapiens, UniProt P05067)
T1 construct: purchased Peptide Institute, INC
Assay: in vitro amyloid binding test (inhibition of [125I]3′-I-BTA-0 binding)
Settings: [125I]3′-I-BTA-0 400 pmol/L, amyloid 1 μmol/L, 0.1% BSA phosphate buffer pH 7.4, 22°C, 3 hours
Experimental: The resulting samples were placed in each well (about 0.3 mL in volume) of a 96-well microplate.
The measured radioactivity level was defined as the background radioactivity level, and used in the calculation of the inhibition ratio (hereinafter referred to as BG).
(9) Using the radioactivity levels measured above in (7) and (8), the inhibition ratio was determined by the following formula (1).
A graph in which values converted by probit transformation from the obtained inhibition ratios were plotted relative to logarithms of concentrations of compounds for evaluation was prepared to obtain an approximate straight line by the least square method. Using the line, the concentration of each compound for evaluation was determined, at which the radioactivity level is half of the level of the sample free from each compound for evaluation, and was defined as a 50% inhibition concentration of each compound (hereinafter referred to as IC50% value).

The chains behind the UniProt entries cited, without tags or fusion partners. Residues count along the entry.
UniProt P05067, 672-711 limits assumed: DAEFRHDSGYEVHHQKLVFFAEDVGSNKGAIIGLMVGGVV

Structure (SMILES): Cc1ccc2c(c1)sc(-c1ccc(N(C)C)cc1)[n+]2C [Thioflavin T, reference compound]
- IC50: > 1000 nM

Reference: patent publication US8277777B2, “Compound having affinity for amyloid” (Nihon Medi-Physics Co., Ltd., priority 2006, dated 2012)
